# Values of other authors as cited in paper PMC8880779, “Design and Experimental Evaluation of a Peptide Antagonist against Amyloid β(1–42) Interactions with Calmodulin and Calbindin-D28k” (International Journal of Molecular Sciences, 2022).
# Molecular target: Calmodulin (UniProt P0DP23)
# Details: cited from earlier work
substance,measurement,value
Amyloid β(1-42) 1-42 (from UniProt P05067),Kd,1 nM
